Sequences of proteins named here, by UniProt entry; tags and fusion partners are left off. A change or cut given only in a name is not applied to a line headed by its entry.
UniProt P54578: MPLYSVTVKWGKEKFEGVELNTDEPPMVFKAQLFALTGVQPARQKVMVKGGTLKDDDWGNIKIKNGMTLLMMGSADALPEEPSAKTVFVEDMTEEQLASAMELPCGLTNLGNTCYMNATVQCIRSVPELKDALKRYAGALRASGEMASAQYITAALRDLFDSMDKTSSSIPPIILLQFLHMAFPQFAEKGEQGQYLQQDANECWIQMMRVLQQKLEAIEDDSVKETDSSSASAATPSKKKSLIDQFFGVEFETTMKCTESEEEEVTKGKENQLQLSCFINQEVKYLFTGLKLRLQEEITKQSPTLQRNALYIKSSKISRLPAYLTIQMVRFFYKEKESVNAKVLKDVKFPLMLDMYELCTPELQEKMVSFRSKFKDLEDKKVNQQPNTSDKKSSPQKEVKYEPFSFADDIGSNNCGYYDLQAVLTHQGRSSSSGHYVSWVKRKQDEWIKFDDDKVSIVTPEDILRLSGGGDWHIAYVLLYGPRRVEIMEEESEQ

In ChEMBL document CHEMBL2406999, “Vialinin A is a ubiquitin-specific peptidase inhibitor” (Bioorg Med Chem Lett, 2013):

Target: Ubiquitin carboxyl-terminal hydrolase 14 (Homo sapiens, UniProt P54578)

Cc1cc(C(=O)CN2CCCC2)c(C)n1-c1ccc(F)cc1
IC50: 4 µM
